Data on 17 molecules can be found in patent publication US20260382731A1, “BCL-2/BCL-XL PROTEIN DEGRADER AND USE THEREOF” (published 2026).

Sequences of proteins named here, by UniProt entry; tags and fusion partners are left off.
UniProt Q07817, whole entry: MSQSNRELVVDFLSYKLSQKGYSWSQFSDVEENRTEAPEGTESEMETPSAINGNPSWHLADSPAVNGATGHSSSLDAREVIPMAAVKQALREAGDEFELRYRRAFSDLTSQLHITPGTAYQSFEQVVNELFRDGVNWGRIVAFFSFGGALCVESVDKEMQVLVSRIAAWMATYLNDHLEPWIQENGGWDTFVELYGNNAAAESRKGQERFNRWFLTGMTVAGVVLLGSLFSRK

pIC50: −log10 of the molar value. A value given as a limit tells only on which side of the number the result lay.

The DC50 is the midpoint of the concentration-degradation curve. As a reminder, the pIC50 is the IC50 on a negative log10 scale, so that one unit is a factor of ten.

One test deals with BCL-XL (Homo sapiens, UniProt Q07817). The experiment in a line: Immunoblotting: BCL-XL protein degradation. The note with it: read-out: MDA-MB-231 degradation DC50, MDA-MB-231 cells. An excerpt: Cells were collected and lysed in a lysis buffer (Cat. No. BP-115DG, Boston Bio Products, Ashland, MA, USA) containing protease and phosphatase inhibitor cocktails (Cat. No. PPC1010, Sigma-Aldrich, St. Louis, MO, USA). An equal amount of protein lysates was separated on precasted 4-20% Tris-glycine gels (Mini-PROTEAN TGX, Cat. No. 456-1094, Bio-Rad, Hercules, CA, USA). Thereafter, the proteins were transferred to PVDF membranes (Cat. No. LC2002, MilliporeSigma, Billerica, MA, USA). The membranes were blocked with 5% w/v nonfat dry milk in TBS+Tween-20 (0.1% v/v) and then probed with primary antibodies overnight at 4 °C. Next day, the membranes were washed and incubated with appropriate horseradish peroxidase (HRP)-conjugated secondary antibodies. Primary antibodies against BCL-XL (Cat. No. 2762) and Pactin (Cat. No. 4970) and the secondary HRP-linked antibody (Cat. No. 7074) were purchased from Cell Signaling Technology (Danvers, MA, USA). The signal was detected using the ECL substrate (Cat. No. WBKLS0500, MilliporeSigma, Billerica, MA, USA) and captured on the ChemiDoc MP Imaging System (Bio-Rad, Hercules, CA, USA). The band intensities were calculated on the ImageJ software and normalized to equal loading control β-actin.

A further test deals with MOLT-4 cells. Description: Cell viability assay, MOLT-4 (CellTiter-Glo, 72 h). The note with it: read-out: MOLT4 Cell viability IC50. (In general: Cellular ATP, detected with luciferase, serves as a proxy for viable cell number.)
For the next test, the system named is human platelets. Description: Platelet viability test (CellTiter-Glo, 72 h). The note with it: read-out: Human platelet IC50. The protocol: Human platelet-rich Plasma (PRP) was purchased from Milestone® Biotechnology Limited. PRPS are used for experiments immediately after arrival. Transfer PRP to a 50-mL polypropylene EP tube containing 5 mL citrate buffer (cat. no. sc-214744, Santa Cruz Biotechnology). To avoid clotting, The final concentration of prostaglandin E1 (PGE1, cat. no. sc-201223A, Santa Cruz Biotechnology) and adenosine diphosphonase triphosphate (cat. no. A6410-200UN, 2 units/mL, respectively) were added to the EP tube. Sigma-Aldrich). Slightly shake and mix the liquid in the EP tube, centrifuge it at 1200 g for 10 minutes, and separate the platelets. HEPES buffer benchtop solution (10 mM HEPES, 135 mM NaCl, 2.8 mM KCl, 1 mM MgCl2, 2 mM CaCl2), 10 mm Hepes, 135 mm NaCl, 2.8 mm KCL, 1 mm MgCl2, 2 mm CaCl2)) was prepared with 2 mL of prostaglandin E1 and 2 units/mL of adenosine bisphosphonase triphosphate. 12 mM NaHCO3, 0.4 mM NaH2PO4, 0.25% BSA and 5.5 mM glucose, pH 7.4; cat. no. Cat. No. Cat. #:25-02580, Tiandz) continuously and gently clean the platelet precipitates after centrifugation. After washing, platelets were slowly reinserted to HEPES buffer table solution containing 1 μM of prostaglandin E1 and 2 units/mL of adenosine bisphosphonase triphosphate. Platelets were counted by Vi-cell XR (Backman) cell counter. Platelet activity tests were performed: platelets were resuscitated into a HEPES buffer solution containing 1 µM of prostaglandin E1 and 2 units/mL of adenosine bisphosphonase triphosphate and 10% FBS, counted, and inoculated into 96-well plates with 5×10^5 platelets per well. Different concentrations of the compound to be detected (starting at 10 μM, diluted 3 times) were added to 96-well plates and incubated in the cell incubator for 72 h. 72 h after administration, platelet activity was detected by CellTiter-Glo™ luminescence assay.

Turning to `CCn1c(C)c(S(C)(=O)=O)c(-c2cc(F)cc(N3CCN(c4ccc(NS(=O)(=O)c5ccc(N[C@H](CCN6CCN(CCCCCCC(=O)N[C@H](C(=O)N7C[C@H](O)C[C@H]7C(=O)N[C@@H](C)c7ccc(-c8scnc8C)cc7)C(C)(C)C)CC6)CSc6ccccc6)c(S(=O)(=O)C(F)(F)F)c5)cc4)CC3)c2)c1-c1ccc(F)cc1`, on BCL-XL, the half-maximal degradation concentration (DC50) was determined as 3 nM. Further, the negative-log IC50 (pIC50) with MOLT-4 cells was 7.77; with human platelets, 6.88.

As to `Cc1ncsc1-c1ccc([C@H](C)NC(=O)[C@@H]2C[C@@H](O)CN2C(=O)[C@@H](NC(=O)CCCCCC(=O)N2CCN(CC[C@H](CSc3ccccc3)Nc3ccc(S(=O)(=O)Nc4ccc(N5CCN(c6cc(F)cc(-c7c(S(C)(=O)=O)c(C)n(C(C)C)c7-c7ccc(F)cc7)c6)CC5)cc4)cc3S(=O)(=O)C(F)(F)F)CC2)C(C)(C)C)cc1`, the 50% degradation concentration (DC50) on BCL-XL was 4 nM. The results for the pIC50 in the test on MOLT-4 cells and with human platelets were 7.44 and 6.99, respectively.

Consider `CCn1c(C)c(C(=O)NCCCN2CCOCC2)c(-c2cc(F)cc(N3CCN(c4ccc(NS(=O)(=O)c5ccc(N[C@H](CCN6CCN(C(=O)CCCCCC(=O)N[C@H](C(=O)N7C[C@H](O)C[C@H]7C(=O)N[C@@H](C)c7ccc(-c8scnc8C)cc7)C(C)(C)C)CC6)CSc6ccccc6)c(S(=O)(=O)C(F)(F)F)c5)cc4)CC3)c2)c1-c1ccc(F)cc1`, for which, at BCL-XL, the DC50 stood at 32 nM. Also, the results for the negative-log IC50 (pIC50) with MOLT-4 cells and in the test on human platelets were 7.72 and 6.58, respectively.

For the molecule `CCn1c(C)c(C(=O)N2CC[C@H](NC(C)=O)C2)c(-c2cc(F)cc(N3CCN(c4ccc(NS(=O)(=O)c5ccc(N[C@H](CCN6CCN(C(=O)CCCCCC(=O)N[C@H](C(=O)N7C[C@H](O)C[C@H]7C(=O)N[C@@H](C)c7ccc(-c8scnc8C)cc7)C(C)(C)C)CC6)CSc6ccccc6)c(S(=O)(=O)C(F)(F)F)c5)cc4)CC3)c2)c1-c1ccc(F)cc1`, on BCL-XL, the DC50 came to 5 nM. For the same molecule, the pIC50 is 7.55 with MOLT-4 cells and 6.19 in the test with human platelets.

Turning to `CCn1c(C)c(S(C)(=O)=O)c(-c2cc(F)cc(N3CCN(c4ccc(NS(=O)(=O)c5ccc(N[C@H](CCN6CCN(C(=O)CCCOCCCC(=O)N[C@H](C(=O)N7C[C@H](O)C[C@H]7C(=O)N[C@@H](C)c7ccc(-c8scnc8C)cc7)C(C)(C)C)CC6)CSc6ccccc6)c(S(=O)(=O)C(F)(F)F)c5)cc4)CC3)c2)c1-c1ccc(F)cc1`, the 50% degradation concentration (DC50) on BCL-XL was found to be 2 nM. For the same molecule, the negative-log IC50 (pIC50) is 7.30 in the test with MOLT-4 cells and 6.34 in the test on human platelets.

For the molecule `CCn1c(C)c(C(=O)N(C)C)c(-c2cc(F)cc(N3CCN(c4ccc(NS(=O)(=O)c5ccc(N[C@H](CCN6CCN(C(=O)CCCCCC(=O)N[C@H](C(=O)N7C[C@H](O)C[C@H]7C(=O)N[C@@H](C)c7ccc(-c8scnc8C)cc7)C(C)(C)C)CC6)CSc6ccccc6)c(S(=O)(=O)C(F)(F)F)c5)cc4)CC3)c2)c1-c1ccc(F)cc1`, at BCL-XL, the 50% degradation concentration (DC50) was 43 nM. Also, the negative logarithm of the IC50 (pIC50) in the test with MOLT-4 cells is 7.62; with human platelets, less than 5.00.

Take `CCn1c(C)c(C(=O)N2CCC(C)(O)C2)c(-c2cc(F)cc(N3CCN(c4ccc(NS(=O)(=O)c5ccc(N[C@H](CCN6CCN(C(=O)CCCCCC(=O)N[C@H](C(=O)N7C[C@H](O)C[C@H]7C(=O)N[C@@H](C)c7ccc(-c8scnc8C)cc7)C(C)(C)C)CC6)CSc6ccccc6)c(S(=O)(=O)C(F)(F)F)c5)cc4)CC3)c2)c1-c1ccc(F)cc1` (some centres unmarked): the 50% degradation concentration (DC50) at BCL-XL was 14 nM. For the same molecule, the results for the negative logarithm of the IC50 (pIC50) with MOLT-4 cells and with human platelets were 7.82 and 4.57, respectively.

For the molecule `CCn1c(C)c(S(=O)(=O)N2CCC(S(C)(=O)=O)C2)c(-c2cc(F)cc(N3CCN(c4ccc(NS(=O)(=O)c5ccc(N[C@H](CCN6CCN(C(=O)CCCCCC(=O)N[C@H](C(=O)N7C[C@H](O)C[C@H]7C(=O)N[C@@H](C)c7ccc(-c8scnc8C)cc7)C(C)(C)C)CC6)CSc6ccccc6)c(S(=O)(=O)C(F)(F)F)c5)cc4)CC3)c2)c1-c1ccc(F)cc1` (some centres unmarked), the 50% degradation concentration (DC50) at BCL-XL came out at 2 nM. Also, the pIC50 was 7.96 with MOLT-4 cells and 7.51 in the test on human platelets.

In the case of `Cc1ncsc1-c1ccc([C@H](C)NC(=O)[C@@H]2C[C@@H](O)CN2C(=O)[C@@H](NC(=O)CCCCCC(=O)N2CCN(CC[C@H](CSc3ccccc3)Nc3ccc(S(=O)(=O)Nc4ccc(N5CCN(c6cc(F)cc(-c7c(C(=O)N8CCOCC8)c(C)n(C(C)C)c7-c7ccc(Cl)cc7)c6)CC5)cc4)cc3S(=O)(=O)C(F)(F)F)CC2)C(C)(C)C)cc1`, the 50% degradation concentration (DC50) at BCL-XL was 3 nM. For the same molecule, the negative-log IC50 (pIC50) is 7.96 in the test with MOLT-4 cells and 7.01 with human platelets.

With `CCn1c(C)c(S(C)(=O)=O)c(-c2cc(F)cc(N3CCN(c4ccc(NS(=O)(=O)c5ccc(N[C@H](CCN6CCN(CCCCOCC(=O)N[C@H](C(=O)N7C[C@H](O)C[C@H]7C(=O)N[C@@H](C)c7ccc(-c8scnc8C)cc7)C(C)(C)C)CC6)CSc6ccccc6)c(S(=O)(=O)C(F)(F)F)c5)cc4)CC3)c2)c1-c1ccc(F)cc1`, the DC50 on BCL-XL is 3 nM. Moreover, the negative logarithm of the IC50 (pIC50) with MOLT-4 cells was 7.66; in the test on human platelets it was 7.13.

For `Cc1ncsc1-c1ccc([C@H](C)NC(=O)[C@@H]2C[C@@H](O)CN2C(=O)[C@@H](NC(=O)CCCCCC(=O)N2CCN(CC[C@H](CSc3ccccc3)Nc3ccc(S(=O)(=O)Nc4ccc(N5CCN(c6cc(F)cc(-c7c(C(=O)N8CC[C@H](O)C8)c(C)n(C(C)C)c7-c7ccc(Cl)cc7)c6)CC5)cc4)cc3S(=O)(=O)C(F)(F)F)CC2)C(C)(C)C)cc1`, the DC50 at BCL-XL was found to be 84 nM. Moreover, the negative-log IC50 (pIC50) in the test on MOLT-4 cells was 8.05.

On to `CCn1c(C)c(S(C)(=O)=O)c(-c2cc(F)cc(N3CCN(c4ccc(NS(=O)(=O)c5ccc(N[C@H](CCN6CCN(C(=O)OCCCCC(=O)N[C@H](C(=O)N7C[C@H](O)C[C@H]7C(=O)N[C@@H](C)c7ccc(-c8scnc8C)cc7)C(C)(C)C)CC6)CSc6ccccc6)c(S(=O)(=O)C(F)(F)F)c5)cc4)CC3)c2)c1-c1ccc(F)cc1`, for which the half-maximal degradation concentration (DC50) on BCL-XL came out at 190 nM. Also, in the test with MOLT-4 cells, the pIC50 was 7.29.

In the case of `CCn1c(C)c(S(C)(=O)=O)c(-c2cc(F)cc(N3CCN(c4ccc(NS(=O)(=O)c5ccc(N[C@H](CCN6CCN(C(=O)CCCCCC(=O)N[C@H](C(=O)N7C[C@H](O)C[C@H]7C(=O)N[C@@H](C)c7ccc(-c8scnc8C)cc7)C(C)(C)C)CC6)CSc6ccccc6)c(S(=O)(=O)C(F)(F)F)c5)cc4)CC3)c2)c1-c1ccc(F)cc1` (single isomer, unassigned), the DC50 at BCL-XL came to 1 nM. Also, in the test with MOLT-4 cells, the pIC50 was 7.89.

Regarding `CCn1c(C)c(C(=O)N2CCOCC2)c(-c2cc(F)cc(N3CCN(c4ccc(NS(=O)(=O)c5ccc(N[C@H](CCN6CCN(C(=O)CCCCCC(=O)N[C@H](C(=O)N7C[C@H](O)C[C@H]7C(=O)N[C@@H](C)c7ccc(-c8scnc8C)cc7)C(C)(C)C)CC6)CSc6ccccc6)c(S(=O)(=O)C(F)(F)F)c5)cc4)CC3)c2)c1-c1ccc(F)cc1`, the 50% degradation concentration (DC50) at BCL-XL is 3 nM. The negative logarithm of the IC50 (pIC50) with MOLT-4 cells is 7.62.

Regarding `CCn1c(C)c(C(=O)NC2CCOCC2)c(-c2cc(F)cc(N3CCN(c4ccc(NS(=O)(=O)c5ccc(N[C@H](CCN6CCN(CCCCCCC(=O)N[C@H](C(=O)N7C[C@H](O)C[C@H]7C(=O)N[C@@H](C)c7ccc(-c8scnc8C)cc7)C(C)(C)C)CC6)CSc6ccccc6)c(S(=O)(=O)C(F)(F)F)c5)cc4)CC3)c2)c1-c1ccc(F)cc1`, the DC50 at BCL-XL was found to be 4 nM. In addition, the pIC50 in the test on MOLT-4 cells is 8.05.

For `CCn1c(C)c(C(=O)N2CCC(C)(C#N)C2)c(-c2cc(F)cc(N3CCN(c4ccc(NS(=O)(=O)c5ccc(N[C@H](CCN6CCN(C(=O)CCCCCC(=O)N[C@H](C(=O)N7C[C@H](O)C[C@H]7C(=O)N[C@@H](C)c7ccc(-c8scnc8C)cc7)C(C)(C)C)CC6)CSc6ccccc6)c(S(=O)(=O)C(F)(F)F)c5)cc4)CC3)c2)c1-c1ccc(F)cc1` (some centres unmarked), the half-maximal degradation concentration (DC50) at BCL-XL amounted to 31 nM. Also, the pIC50 with MOLT-4 cells was 7.46.

As for `CCn1c(C)c(C(=O)N2CC(O)C(F)(F)C2)c(-c2cc(F)cc(N3CCN(c4ccc(NS(=O)(=O)c5ccc(N[C@H](CCN6CCN(C(=O)CCCCCC(=O)N[C@H](C(=O)N7C[C@H](O)C[C@H]7C(=O)N[C@@H](C)c7ccc(-c8scnc8C)cc7)C(C)(C)C)CC6)CSc6ccccc6)c(S(=O)(=O)C(F)(F)F)c5)cc4)CC3)c2)c1-c1ccc(F)cc1` (some centres unmarked), at BCL-XL, the half-maximal degradation concentration (DC50) turned out to be 84 nM. The negative-log IC50 (pIC50) with MOLT-4 cells was 7.40.
